Test results from patent EP2884284A1, “Dry diagnostic reagent” (priority 2013, dated 2015).
Where two headings read alike, the source gives them in different places.

What was measured:
[1] = Moisture uptake, modified Ph. Eur. 5.11 hygroscopicity method; type: physicochemical; conditions: mass increase during 24h storage over saturated ammonium sulfate solution, 25°C, about 100 mg
Description: It determines the mass increase (% (m/mo)) during a 24h storage period over a saturated ammonium sulfate solution.

[2] = Solubility, Ph. Eur. 5.11 procedure in TRIS buffer; conditions: 100mg substance, TRIS buffer isotonic pH = 7.4, 25.0°C, visual after 1 min. mixing and 15 min. storage
Text: Table 3: Categorization of solubility according to Ph. Eur. 7.4

[3] = Moisture uptake over saturated K2SO4 solution at about 100% relative humidity; conditions: about 25°C, amorphous except for CaCl2
[4] = cited from earlier work
[5] = Glass transition temperature Tg by differential scanning calorimetry; type: physicochemical
Description: Hydranal® Coulomat AG Oven served as a reagent. About 10 mg of the substance was used for an expected residual moisture between 5 - 10%(m/m) and about 50 - 80 mg were used for an expected moisture content […]. […]
Primary drying was carried out at Tinlet = -30° C / 30mtorr for 15h followed by secondary drying at 40°C / 30mtorr for 6h with a heating rate between the two steps of 0.3 °C/min. The glass transition temperature as well as the residual moisture content were measured after freeze drying for the respective substance.

Substance: calcium lacto gluconate [CLG (2:1)]
- Ph. Eur. method Hygroscopicity [1]: 20.44 %(m/mo
- Ph. Eur. method Solubility [2]: freely soluble

Substance: Calcium lacto ascorbate [CLA]
- Ph. Eur. method Hygroscopicity [1]: 30.51 %(m/mo
- Ph. Eur. method Solubility [2]: very soluble
- Uptake rate during 3h storage at 99.9 % rel. humidity (sat. K2SO4 sol.) [3]: 0.638 ratio compared to CaCl2

Substance: calcium lacto pantothenate [CLP]
- Ph. Eur. method Hygroscopicity [1]: 27.20 %(m/mo
- Ph. Eur. method Solubility [2]: freely soluble
- Uptake rate during 3h storage at 99.9 % rel. humidity (sat. K2SO4 sol.) [3]: 0.536 ratio compared to CaCl2

Substance: calcium gluconate [CG, reference compound]
- Ph. Eur. method Solubility [2]: sparingly soluble***
- solubility in water ([4]; background statement): 35 mg/mL
- solubility in water ([4]; stated in Example 1): 70 mM

Substance: calcium ascorbate lactobionate [CALB]
- Tg ([5]; CALB ratio 0, moisture content 0 %(m/m)): 121.13 °C
- Tg ([5]; CALB ratio 0, moisture content 4.68 %(m/m)): 72.34 °C
- Tg ([5]; CALB ratio 0, moisture content 6.93 %(m/m)): 58.83 °C
- Tg ([5]; CALB ratio 0, moisture content 8.09 %(m/m)): 42.97 °C
- Tg ([5]; CALB ratio 0, moisture content 14.18 %(m/m)): 8.59 °C
- Tg ([5]; CALB ratio 23.54, moisture content 0 %(m/m)): 128.97 °C
- Tg ([5]; CALB ratio 23.54, moisture content 4.30 %(m/m)): 81.00 °C
- Tg ([5]; CALB ratio 23.54, moisture content 8.62 %(m/m)): 48.33 °C
- Tg ([5]; CALB ratio 23.54, moisture content 10.95 %(m/m)): 40.12 °C
- Tg ([5]; CALB ratio 64.23, moisture content 0 %(m/m)): 140.90 °C
- Tg ([5]; CALB ratio 64.23, moisture content 4.82 %(m/m)): 84.55 °C
- Tg ([5]; CALB ratio 64.23, moisture content 6.29 %(m/m)): 77.15 °C
- Tg ([5]; CALB ratio 64.23, moisture content 8.32 %(m/m)): 60.75 °C
- Tg ([5]; CALB ratio 64.23, moisture content 11.68 %(m/m)): 32.61 °C
- Tg ([5]; CALB ratio %(m(CA)/m(CLB)) = 100, moisture content 0 %(m/m) (annealed)): 140.09 °C
- Tg ([5]; CALB ratio %(m(CA)/m(CLB)) = 100, moisture content 5.10 %(m/m)): 82.46 °C
- Tg ([5]; CALB ratio %(m(CA)/m(CLB)) = 100, moisture content 8.20 %(m/m)): 64.81 °C
- Tg ([5]; CALB ratio %(m(CA)/m(CLB)) = 100, moisture content 13.87 %(m/m)): 30.65 °C
- Ph. Eur. method Hygroscopicity [1]: 23.63 %(m/mo
- Ph. Eur. method Solubility [2]: very soluble
- Uptake rate during 3h storage at 99.9 % rel. humidity (sat. K2SO4 sol.) [3]: 0.629 ratio compared to CaCl2

Substance: calcium lactobionate pantothenate [CLBP]
- Ph. Eur. method Hygroscopicity [1]: 25.39 %(m/mo
- Ph. Eur. method Solubility [2]: very soluble
- Uptake rate during 3h storage at 99.9 % rel. humidity (sat. K2SO4 sol.) [3]: 0.637 ratio compared to CaCl2

Substance: calcium lacto lactobionate [CLLB]
- Ph. Eur. method Solubility [2]: freely soluble

Substance: calcium lacto gluconate [CLG ME]
- Ph. Eur. method Hygroscopicity [1]: 19.91 %(m/mo
- Ph. Eur. method Solubility [2]: very soluble

Substance: calcium ascorbate [reference compound]
- Uptake rate during 3h storage at 99.9 % rel. humidity (sat. K2SO4 sol.) [3]: 0.449 ratio compared to CaCl2
